# Test: Toxicity of metabolic by-products in the human body
# Conditions: by-products according to the metabolic pathways in the human body
row,SMILES,Toxicity (of metabolic by-products in the human body)
1,CCOC(=O)OC(C)OC(=O)C(C)c1ccc(CC(C)C)cc1 (stereo not shown) [Compound N6],Low toxicity
2,CC(C)Cc1ccc(C(C)C(=O)OC(C)(C)OC(=O)OC(C)C)cc1 (stereo not shown),Low toxicity
3,COC(=O)OC(C)OC(=O)C(C)c1ccc(CC(C)C)cc1 (stereo not shown),Relatively high toxicity of
4,CCC(OC(=O)OC1CCCCC1)OC(=O)C(C)c1ccc(CC(C)C)cc1 (stereo not shown),Low toxicity
5,CC(C)Cc1ccc(C(C)C(=O)OC(C)OC(=O)OC2CCCCC2)cc1 (stereo not shown),Low toxicity
6,COC(=O)OC(OC(=O)C(C)c1ccc(CC(C)C)cc1)C(C)C (stereo not shown),Relatively high toxicity of
7,CCC(OC(=O)OC(C)C)OC(=O)C(C)c1ccc(CC(C)C)cc1 (stereo not shown),Low toxicity
8,CCOC(=O)OC(CC)OC(=O)C(C)c1ccc(CC(C)C)cc1 (stereo not shown) [Compound N9],Low toxicity
9,CCOC(=O)OC(C)(C)OC(=O)C(C)c1ccc(CC(C)C)cc1 (stereo not shown),Low toxicity
10,CC(C)Cc1ccc(C(C)C(=O)OC(C)OC(=O)OC(C)C)cc1 (stereo not shown) [Compound N2],Low toxicity

# From patent publication US20230000812A1, “IBUPROFEN ESTER PRODRUG, PHARMACEUTICAL COMPOSITION, PREPARATION METHOD AND APPLICATION” (NANJING HERON PHARMACEUTICAL SCIENCE AND TECHNOLOGY CO., …, priority 2020, published 2023)
